Biological target: BACE enzyme (Homo sapiens, UniProt P56817)
Experiment: BACE enzyme inhibition, fluorescence-quenched peptide substrate MCA-EVNLDAEFK(DNP)
Assay type: biochemical
Settings: read-out: Activity Rating (based on IC50 values); 50 mM acetate, pH 4.5, 0.25 mg/ml bovine serum albumin, 2.5% DMSO; tested form: TFA

Protein sequences, listed by entry. Tags and fused reporters are not part of them. Residues count along the entry.
UniProt P56817, 75-416 limits assumed: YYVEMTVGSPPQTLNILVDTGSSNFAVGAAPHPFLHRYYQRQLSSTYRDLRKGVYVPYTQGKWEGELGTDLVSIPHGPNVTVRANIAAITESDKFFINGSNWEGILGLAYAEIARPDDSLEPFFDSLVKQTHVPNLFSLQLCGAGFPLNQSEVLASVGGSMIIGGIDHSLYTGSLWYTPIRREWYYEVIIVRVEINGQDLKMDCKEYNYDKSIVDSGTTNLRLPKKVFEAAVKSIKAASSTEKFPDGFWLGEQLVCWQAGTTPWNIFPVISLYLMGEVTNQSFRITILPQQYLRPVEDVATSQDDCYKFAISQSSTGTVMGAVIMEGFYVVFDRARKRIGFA

CC[C@H](C)[C@@]1(NC(C)=O)CCN([C@@H](CCc2ccccc2)C(=O)N[C@@H](Cc2ccccc2)[C@H](O)CNCc2cc(F)cc(C(F)(F)F)c2)C1=O
IC50: < 100 nM

CC[C@H](C)[C@@]1(NC(C)=O)CCN([C@@H](CCc2ccccc2)C(=O)N[C@@H](Cc2ccccc2)[C@H](O)CNCc2cccc(C(F)(F)F)c2)C1=O
IC50: < 100 nM

Source: US7557137B2, “Gamma-lactams as beta-secretase inhibitors” (Bristol-Myers Squibb Company, priority 2002, dated 2009)
